The record followed here is article PMC6925601 (European journal of medicinal chemistry, 2019).

This assay addresses T1, Cdc25A (Homo sapiens, UniProt P30304).
T1 sequence (P30304 1-524): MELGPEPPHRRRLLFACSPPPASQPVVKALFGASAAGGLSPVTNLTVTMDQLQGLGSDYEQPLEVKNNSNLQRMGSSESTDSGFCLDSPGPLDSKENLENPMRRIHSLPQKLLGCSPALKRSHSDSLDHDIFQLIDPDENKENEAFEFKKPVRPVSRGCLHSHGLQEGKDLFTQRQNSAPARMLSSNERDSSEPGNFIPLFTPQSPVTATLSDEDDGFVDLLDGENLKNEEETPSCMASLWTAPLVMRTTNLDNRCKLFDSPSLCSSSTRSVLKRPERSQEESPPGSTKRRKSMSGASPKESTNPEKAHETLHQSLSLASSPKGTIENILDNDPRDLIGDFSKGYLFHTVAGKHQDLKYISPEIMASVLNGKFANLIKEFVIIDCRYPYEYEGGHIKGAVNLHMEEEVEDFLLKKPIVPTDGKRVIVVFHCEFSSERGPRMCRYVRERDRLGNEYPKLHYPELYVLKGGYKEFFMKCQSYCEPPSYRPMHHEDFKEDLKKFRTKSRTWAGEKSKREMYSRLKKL
As to the kind of experiment: CycLex Cdc25A fluorometric phosphatase inhibition assay. Format: biochemical.

Structures are written as SMILES.

Consider `CSC1=C(SC)C(=O)c2ccccc2C1=O` [Compound 13], for which the IC50 (as a rule, the concentration that inhibits the measured activity by half) was under 5 µM.
